pIC50: −log10 of the molar value. Read-outs that look alike come from different tables or passages of the source. Where only a bound is given, the exact number is not on record here.

Experimental findings from patent publication US9340577B2, “HLA binding motifs and peptides and their uses” (priority 1992, dated 2016) are described below.

Among the targets are HLA-A1 (A*0101) (Homo sapiens, UniProt P04439, A114D/A174V/A182V/D101N/D185E/E176A/E190D/L180R/Q94H/R68K/S129P/T187R/V100A/V91M/W191G); DR7 (DRB1*0701) (Homo sapiens, UniProt P01903+P01911, A100R/A102G/A103Q/D57E/D86V/E43K/F76Y/K127E/L162R/M171V/P40G/Q125H/Q99D/R33Q/R42Y/R54Q/S133A/S66F/T210M/V115G/Y107V/Y59L/Y89S); DRB1*1302 (Homo sapiens, UniProt P01903+P01911, A100E/A169T/K41T/L162R/M171V/P40S/Q125H/Q178H/Q39Y/Q99D/R42S/S66N/T262R/V115G/W38E/Y61H).

Common to all, as to test: biochemical
The target of another assay is A*6802 (Homo sapiens, UniProt P04439, A269V/D140Y/D185E/E176V/E277Q/E87N/F33Y/G231S/I121R/I166T/I218V/L180W/L300P/L318F/N151K/P208A/P217A/Q86R/R138H/R169H/S129P/T345S/V36M). In kind it is binding.
The target in a further assay is A*3002 (Homo sapiens, UniProt P04439, D101N/D140H/D185E/E176R/F33S/G80R/H175R/K168Q/Q94H/R138E/R41S/V100E). In kind it is binding.
The target in another assay is A*2902 (Homo sapiens, UniProt P04439, A270S/D101N/D185E/E176V/E277Q/E87Q/F33T/G231S/H175R/I121M/I218V/I322F/K168Q/L300P/L318F/M331R/P208A/P217A/Q86L/T323A/T345S/V100A/V358M). In kind it is binding.
Another assay deals with DRB1*0405 (Homo sapiens, UniProt P01903+P01911, A100R/A169T/D86S/F76Y/I96L/K127E/L162R/M171V/N62H/P40V/Q125Y/R42H/S133A/S149N/S66Y/V115G/V209L/W38E). In kind it is binding.
In the next assay the target is B*0701 (Homo sapiens, UniProt P01889). The following applies: for IC50: B*0701 (nM).
For another assay, the target named is DR4w4 (DRB1*0401) (Homo sapiens, UniProt P01903+P01911, A100K/A169T/F76Y/I96L/K127E/L162R/M171V/N62H/P40V/Q125Y/R42H/S133A/S149N/S66Y/V115G/V209L/W38E). In kind it is binding.
Setting [1] is: Binding of peptides to B7-like supermotif alleles, Table 36.

`CC(C)C[C@H](NC(=O)[C@H](CO)NC(=O)[C@H](CC(C)C)NC(=O)[C@@H](N)CO)C(=O)NCC(=O)N[C@@H](Cc1ccccc1)C(=O)N[C@@H](CC(C)C)C(=O)N[C@@H](Cc1ccccc1)C(=O)N[C@H](C(=O)O)C(C)C` [Peptide 1419.50] had a pIC50 at A*6802 of less than 4.70.

Turning to `C[C@H](N)C(=O)N[C@@H](C)C(=O)N[C@@H](CO)C(=O)N[C@@H](CC(N)=O)C(=O)N1CCC[C@H]1C(=O)N1CCC[C@H]1C(=O)N[C@@H](C)C(=O)N[C@@H](CCC(N)=O)C(=O)N[C@@H](Cc1ccc(O)cc1)C(=O)O` [Peptide 1610.04], the pIC50 at HLA-A1 (A*0101) was less than 4.70; against A*3002, 6.68; on A*2902, less than 4.70.

In the case of `CSCC[C@H](NC(=O)[C@H](Cc1ccc(O)cc1)NC(=O)[C@H](Cc1ccc(O)cc1)NC(=O)[C@@H](NC(=O)[C@@H](N)CO)C(C)C)C(=O)N[C@H](C(=O)N[C@@H](CC(=O)O)C(=O)N[C@@H](C)C(=O)NCC(=O)N[C@H](C(=O)N[C@@H](Cc1c[nH]c2ccccc12)C(=O)N[C@@H](CC(=O)O)C(=O)N[C@@H](CCCCN)C(=O)N[C@H](C(=O)N[C@@H](C)C(=O)O)[C@@H](C)O)[C@@H](C)O)[C@@H](C)O` [Peptide 90.0182], the pIC50 against DR7 (DRB1*0701) is 5.93; against DRB1*0405 it was 5.39.

As a reminder, the IC50 is the concentration that gives 50% inhibition. The low end stands for higher potency, the high end for lower potency. In the case of `CC[C@H](C)[C@H](NC(=O)[C@@H]1CCCN1C(=O)[C@@H](N)CC(C)C)C(=O)N[C@@H](Cc1c[nH]cn1)C(=O)N[C@H](C(=O)N[C@@H](C)C(=O)N[C@@H](CCC(=O)O)C(=O)N[C@@H](CC(C)C)C(=O)N[C@@H](CC(C)C)C(=O)N[C@@H](C)C(=O)O)[C@@H](C)O` [16.181], on B*0701 (setting [1]), the IC50 worked out at 3090 nM. In other words, the single-digit micromolar range.

On to `CC(C)C[C@H](NC(=O)[C@H](CCC(=O)O)NC(=O)[C@H](Cc1c[nH]cn1)NC(=O)[C@H](CC(C)C)NC(=O)[C@@H](NC(=O)[C@H](CCCNC(=N)N)NC(=O)[C@@H]1CCCN1C(=O)[C@H](CCCNC(=N)N)NC(=O)[C@@H](N)[C@@H](C)O)[C@@H](C)O)C(=O)N[C@@H](CS)C(=O)N[C@@H](CCC(=O)O)C(=O)N[C@H](C(=O)N[C@@H](CC(C)C)C(=O)N[C@@H](CCC(=O)O)C(=O)N[C@@H](CCC(=O)O)C(=O)O)C(C)C` [Peptide 1543.42], for which, at DR4w4 (DRB1*0401), the pIC50 is 4.88.

`CC(C)C[C@H](NC(=O)[C@@H](NC(=O)[C@H](CCC(=O)O)NC(=O)[C@H](CCCCN)NC(=O)CNC(=O)[C@H](CCC(=O)O)NC(=O)[C@H](C)NC(=O)[C@@H](NC(=O)[C@@H](N)CC(N)=O)C(C)C)C(C)C)C(=O)N[C@H](C(=O)O)C(C)C` [Peptide 9013.0133] had a pIC50 on A*6802 of 6.45.

For `CC[C@H](C)[C@H](NC(=O)[C@H](CCC(=O)O)NC(=O)[C@@H](N)CO)C(=O)N[C@@H](Cc1ccc(O)cc1)C(=O)N[C@H](C(=O)N[C@H](C(=O)N[C@@H](CCC(=O)O)C(=O)N[C@@H](CCC(=O)O)C(=O)N[C@H](C(=O)N[C@H](C(=O)N[C@@H](CS)C(=O)N[C@H](C(=O)N[C@@H](CC(C)C)C(=O)N[C@H](C(=O)N[C@@H](C)C(=O)O)C(C)C)[C@@H](C)O)[C@@H](C)O)[C@@H](C)O)[C@@H](C)CC)[C@@H](C)CC` [Peptide 90.0250], the pIC50 against DR4w4 (DRB1*0401) was 6.78.

`CC[C@H](C)[C@H](NC(=O)CNC(=O)[C@H](CCC(=O)O)NC(=O)[C@H](Cc1c[nH]cn1)NC(=O)[C@@H](N)C(C)C)C(=O)N[C@@H](CCCNC(=N)N)C(=O)N[C@H](C(=O)N[C@@H](Cc1ccc(O)cc1)C(=O)N[C@@H](Cc1ccccc1)C(=O)N[C@H](C(=O)N[C@@H](CCC(N)=O)C(=O)N[C@@H](Cc1ccccc1)C(=O)N[C@@H](CCCCN)C(=O)N[C@@H](CC(=O)O)C(=O)N[C@@H](CC(=O)O)C(=O)O)C(C)C)[C@@H](C)O` [Peptide 1601.05]: the pIC50 against DR4w4 (DRB1*0401) was 4.92; on DRB1*1302, 4.77.

The compound `CC(C)C[C@H](NC(=O)CNC(=O)[C@H](CC(C)C)NC(=O)[C@H](CCCNC(=N)N)NC(=O)CNC(=O)[C@H](CCCNC(=N)N)NC(=O)[C@H](CO)NC(=O)[C@@H]1CCCN1C(=O)[C@@H](N)CC(=O)O)C(=O)O` [15.038] displayed an IC50 at B*0701 (setting [1]) of 45 nM.

On to “787.38 (AADFGIFIDFIIA; non-natural residue (43)) [Peptide 787.38]”, for which the pIC50 in the assay with DR4w4 (DRB1*0401) (read-out: DRB1*0401) was 6.63.

Take `CC[C@H](C)[C@H](NC(=O)[C@H](CCC(N)=O)NC(=O)[C@@H](NC(=O)[C@H](CO)NC(=O)[C@@H](N)CC(=O)O)C(C)C)C(=O)N[C@@H](CC(C)C)C(=O)N[C@H](C(=O)NCC(=O)N[C@@H](Cc1ccc(O)cc1)C(=O)O)C(C)C` [Peptide 86.0147]: the results for the pIC50 against A*3002 and at A*2902 were 6.86 and 4.87, respectively.

As for `CC[C@H](C)[C@H](NC(=O)[C@@H](NC(=O)[C@@H]1CCCN1)[C@@H](C)O)C(=O)N[C@@H](CO)C(=O)N1CCC[C@H]1C(=O)N[C@@H](CO)C(=O)N[C@@H](Cc1ccc(O)cc1)C(=O)N[C@H](C(=O)N[C@@H](Cc1ccc(O)cc1)C(=O)N[C@@H](Cc1ccc(O)cc1)C(=O)O)[C@@H](C)O` [Peptide 1553.03], the values for the pIC50 against HLA-A1 (A*0101) and on A*3002 were 6.38 and 5.80, respectively.

For the compound `CC(C)C[C@H](N)C(=O)N[C@H](C(=O)N[C@@H](Cc1ccccc1)C(=O)N[C@@H](Cc1c[nH]c2ccccc12)C(=O)N[C@@H](CC(N)=O)C(=O)N1CCC[C@H]1C(=O)N1CCC[C@H]1C(=O)N[C@H](C(=O)N[C@H](C(=O)O)C(C)C)[C@@H](C)O)[C@@H](C)O` [Peptide 9013.0006], the pIC50 against A*6802 is 7.85.

The compound `CC(C)C[C@H](NC(=O)[C@H](CC(C)C)NC(=O)[C@H](CC(C)C)NC(=O)[C@@H]1CCCN1C(=O)[C@H](C)N)C(=O)N[C@@H](C)C(=O)N[C@@H](CCCNC(=N)N)C(=O)N[C@@H](C)C(=O)N[C@@H](C)C(=O)O` [16.032] displayed an IC50 at B*0701 (setting [1]) of 257 nM.

Regarding `CC[C@H](C)[C@H](N)C(=O)N[C@@H](CCCCN)C(=O)N[C@@H](Cc1ccccc1)C(=O)N[C@@H](Cc1ccccc1)C(=O)N[C@@H](CCC(N)=O)C(=O)NCC(=O)N[C@@H](CO)C(=O)N[C@H](C(=O)N[C@H](C(=O)N[C@@H](CO)C(=O)N[C@@H](Cc1ccccc1)C(=O)N[C@H](C(=O)N[C@@H](CC(N)=O)C(=O)N[C@@H](CO)C(=O)N[C@@H](CCC(N)=O)C(=O)O)C(C)C)[C@@H](C)CC)C(C)C` [Peptide 89.0136], on DR4w4 (DRB1*0401), the pIC50 was 5.01.

Consider `CC[C@H](C)[C@H](NC(=O)[C@@H](NC(=O)[C@H](Cc1ccc(O)cc1)NC(=O)[C@H](CC(C)C)NC(=O)[C@H](Cc1c[nH]cn1)NC(=O)[C@H](CO)NC(=O)[C@@H](NC(=O)[C@@H]1CCCN1C(=O)[C@@H](N)C(C)C)[C@@H](C)CC)[C@@H](C)CC)C(=O)O`, for which, at B*0701, the pIC50 is 6.97.

`CC[C@H](C)[C@H](NC(=O)[C@@H](NC(=O)[C@@H](NC(=O)[C@@H](NC(=O)[C@H](CC(C)C)NC(=O)[C@@H](N)[C@@H](C)O)C(C)C)[C@@H](C)O)[C@@H](C)O)C(=O)N[C@H](C(=O)N[C@H](C(=O)N[C@@H](Cc1ccc(O)cc1)C(=O)N[C@@H](C)C(=O)O)C(C)C)[C@@H](C)O` [Peptide 9013.0193]: at A*6802, the pIC50 is 6.71.

Consider `CC[C@H](C)[C@H](NC(=O)[C@H](CCCCN)NC(=O)[C@H](CCC(=O)O)NC(=O)CNC(=O)[C@H](CC(=O)O)NC(=O)[C@H](CS)NC(=O)[C@H](Cc1c[nH]c2ccccc12)NC(=O)[C@H](Cc1ccc(O)cc1)NC(=O)[C@H](Cc1ccc(O)cc1)NC(=O)[C@H](CC(C)C)NC(=O)CN)C(=O)N[C@@H](Cc1ccc(O)cc1)C(=O)N[C@@H](Cc1ccccc1)C(=O)N[C@H](C(=O)N[C@@H](CCCCN)C(=O)O)C(C)C` [Peptide 90.0226], for which the values for the pIC50 at DR4w4 (DRB1*0401) and on DRB1*0405 were 5.83 and 5.39, respectively.

With `CC[C@H](C)[C@H](NC(=O)[C@H](C)NC(=O)[C@@H]1CCCN1C(=O)[C@H](CC(N)=O)NC(=O)CNC(=O)[C@@H]1CCCN1C(=O)[C@@H](N)CC(C)C)C(=O)N[C@@H](C)C(=O)N[C@@H](CO)C(=O)N[C@@H](CC(C)C)C(=O)O` [15.236], the IC50 at B*0701 (binding of B7-like supermotif 10-mer peptides to purified HLA-B*0701) was determined as 752 nM.

Consider `CC(C)C[C@H](NC(=O)CN)C(=O)N[C@@H](Cc1c[nH]cn1)C(=O)NCC(=O)N[C@@H](CCC(N)=O)C(=O)N[C@@H](CC(=O)O)C(=O)N[C@@H](CC(C)C)C(=O)N[C@@H](Cc1ccccc1)C(=O)NCC(=O)N[C@H](C(=O)O)C(C)C` [Peptide 1419.62], for which the pIC50 against A*6802 is less than 4.70.
